We go through two molecules from the NIST ThermoML archive (doi:10.1016/j.jct.2007.09.004).

In general, mass density refers to the mass of a sample divided by its volume.

The nature of data set [1]: relative permittivity at zero frequency (dimensionless). To be noted: 101.3 kPa, Liquid, Parallel plate capacitor.
The conditions of data set [2]: 101 kPa, Liquid.
A short description of data set [3]: relative permittivity at zero frequency (dimensionless); xn = mol fraction of the nth substance listed. The following applies: 101 kPa, Liquid, Parallel plate capacitor, x2 = 0.
Data set [4] is described as follows: xn = mol fraction of the nth substance listed. To be noted: 101 kPa, Liquid, x2 = 0.

Structures are written as SMILES. ± gives the expanded uncertainty stated by the source.

With `OCCOCCOCCOCCO` [tetraethylene glycol], the “relative permittivity at zero frequency” value in data set [1] (293.15 K) was found to be 20.44 ± 0.04; in data set [1] (298.15 K) it was 19.91 ± 0.04; in data set [1] (303.15 K), 19.35 ± 0.04. The results for the mass density in data set [2] (293.15 K), in data set [2] (298.15 K) and in data set [2] (303.15 K) were 1123.43 ± 1.9 kg/m3, 1120.19 ± 1.9 kg/m3 and 1116.94 ± 2 kg/m3, respectively.

Regarding `OCCOCCOCCOCCO` [tetraethylene glycol] + CCCOCCO, the “relative permittivity at zero frequency” value in data set [3] (293.15 K) was found to be 20.44 ± 0.04; in data set [3] (298.15 K), 19.91 ± 0.04; in data set [3] (303.15 K) it was 19.35 ± 0.04. Besides, the mass density is recorded as 1123.43 ± 1.9 kg/m3 in data set [4] (293.15 K), 1120.19 ± 1.9 kg/m3 in data set [4] (298.15 K) and 1116.94 ± 2 kg/m3 in data set [4] (303.15 K).
